From paper PMC2929220

Biological target: His-tagged, recombinant importin β (UniProt Q14974)
Assay: pull-down; preformed GST-IBB-importin β complexes on glutathione beads, RanQ69L-GTP (15 μM) added afterwards; bound and eluted fractions by semi-quantitative immunoblotting (IRDye secondary antibody, Odyssey)

Substance: His-tagged RanQ69L protein (preloaded with GTP) (from UniProt P62826 1-216) (enzyme; other documents disagree on this pair)
- percent of the preformed importin β-KPNA2 IBB complexes dissociated by RanGTP: 60%
- percent of the preformed importin β-KPNA7 IBB complexes dissociated by RanGTP: 3%
